Experimental findings from US9750727B2 (priority 2010, dated 2017) are described below.

This test deals with M. bovis bovinus 8. The test is classed as in vivo. The settings on record: mice, 42 days of treatment.

For the compound `CO[C@H]1/C=C/O[C@@]2(C)Oc3c(C)c(O)c4c(O)c(c(/C=N/N5CCN(C)CC5)c(O)c4c3C2=O)NC(=O)/C(C)=C\C=C\[C@H](C)[C@H](O)[C@@H](C)[C@@H](O)[C@@H](C)[C@H](OC(C)=O)[C@@H]1C` [Rifampicin, rifampicin], the “Scored sum of area: Dense lymphocytic infiltrate” value is 2.37.
